Measurements from article PMC3114813 (Environmental Health Perspectives, 2011).

Amino acid sequences for entries named in this document (tags omitted).
UniProt P10275, whole entry Q868H: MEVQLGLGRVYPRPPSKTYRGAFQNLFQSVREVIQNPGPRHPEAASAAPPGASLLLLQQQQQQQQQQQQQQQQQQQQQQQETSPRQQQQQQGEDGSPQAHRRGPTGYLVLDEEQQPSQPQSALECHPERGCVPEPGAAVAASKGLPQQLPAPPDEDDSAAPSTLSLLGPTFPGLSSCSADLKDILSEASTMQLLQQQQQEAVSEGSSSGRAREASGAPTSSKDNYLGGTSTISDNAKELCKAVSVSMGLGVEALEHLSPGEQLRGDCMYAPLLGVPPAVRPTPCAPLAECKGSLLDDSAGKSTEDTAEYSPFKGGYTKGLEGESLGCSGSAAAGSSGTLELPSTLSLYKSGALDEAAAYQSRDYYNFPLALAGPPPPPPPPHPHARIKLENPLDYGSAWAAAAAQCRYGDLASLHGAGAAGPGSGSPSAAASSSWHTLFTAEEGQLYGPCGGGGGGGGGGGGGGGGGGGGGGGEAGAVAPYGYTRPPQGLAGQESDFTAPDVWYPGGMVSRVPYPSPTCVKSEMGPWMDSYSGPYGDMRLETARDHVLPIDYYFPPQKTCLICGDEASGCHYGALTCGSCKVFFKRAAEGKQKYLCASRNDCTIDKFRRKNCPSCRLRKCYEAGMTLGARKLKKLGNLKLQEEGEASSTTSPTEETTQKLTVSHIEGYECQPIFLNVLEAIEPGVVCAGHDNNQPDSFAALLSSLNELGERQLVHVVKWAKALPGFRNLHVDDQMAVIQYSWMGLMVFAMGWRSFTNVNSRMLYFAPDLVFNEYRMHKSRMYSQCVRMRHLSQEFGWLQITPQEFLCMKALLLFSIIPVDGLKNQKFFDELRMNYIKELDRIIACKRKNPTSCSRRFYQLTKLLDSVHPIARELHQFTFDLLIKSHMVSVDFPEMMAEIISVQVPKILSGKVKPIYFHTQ

How the values were obtained:
androgen receptor (AR) [1] = biological target: T1, androgen receptor (AR) (Homo sapiens, UniProt P10275, Q868H); format: cell-based
T1 construct: MDA-kb2 cells are human breast cancer cells stably transfected with a firefly luciferase reporter gene; endogenous in cells; host or cells: MDA-kb2 (human breast cancer cells)
Procedure: MDA-kb2 cells are human breast cancer cells stably transfected with a firefly luciferase reporter gene that is driven by an androgen-response element–containing promoter ([Wilson et al. 2002]). Details of the modified assay were published previously ([Ermler et al. 2010]). Briefly, cells were seeded at a concentration of 1 × 10^5 cells/mL in phenol red–free Leibowitz-15 medium (Invitrogen Ltd., Paisley, UK) containing 10% (charcoal-stripped) fetal calf serum (Invitrogen Ltd.) in white luminometer plates and allowed to attach for 24 hr. Cells were then exposed to eight serial dilutions of selected pesticides with or without DHT (0.25 nM). After 24 hr, luciferase activity was determined with SteadyGlo assay reagent (Promega UK Ltd., Southampton, Hampshire, UK) and measured in a plate reader (FLUOstar Optima, BMG Labtech GmbH, Offenburg, Germany). […] All concentrations were tested in duplicate over two plates, and each pesticide was measured at least twice in separate experiments. For comparative purposes, luminescence was normalized to DHT alone at coexposure concentration (maximum response, 100%) and solvent-only (ethanol) controls (minimum response, 0%). […]
To analyze antiandrogenic action, raw luminescence readings were normalized on a plate-by-plate basis to the means of the positive DHT controls (n = 8) and the solvent controls (n = 8) ([Ermler et al. 2010]). […]

androgen receptor (AR) [2] = biological target: T2, androgen receptor (AR) (Homo sapiens, UniProt P10275); format: cell-based; conditions: read-out: Antiandrogen IC20 (μM) YAS
T2 construct: expressed in transfected cells; host or cells: yeast (YAS strain)
Procedure: Briefly, stimulation of the transfected AR causes a color change in the media, which is measured by absorbance at 540 nm (Labsystems Multiskan Multisoft, Vienna, VA, USA). Plates were also measured at 620 nm to measure cell growth (turbidity) to check for any cytotoxic effects that may have occurred. […] Incubation time was 53 hr at 28°C. […] Pesticide serial dilutions were tested in duplicate over two plates and were tested in two separate experiments.
Specifically, a variety of nonlinear regression models were fitted independently to the same data set, and the best-fitting model was selected using a statistical goodness-of-fit criterion. […] Data considered to be statistically significant at p < 0.05 were analyzed using the best-fit approach as described above. All statistical analysis was performed using SAS statistical software (SAS Institute Inc., Cary, NC, USA). From the best-fitting model, we derived inhibitory concentrations for antiandrogenicity and effect concentrations for cytotoxicity.

COP(=S)(OC)SCn1nnc2ccccc2c1=O [Azinphos-methyl]
IC20 (androgen receptor (AR) [1]; read-out: Antiandrogen IC20 (μM) MDA-kb2): 5.38 µM
ERR (environmental relevance ratio) (androgen receptor (AR) [1]; total exposure score / IC20 (MDA-kb2), recalculated using experimental data): 2.9
IC20 (androgen receptor (AR) [2]): 2.25 µM
